Source: PubChem BioAssay
DT40 TDP1 no CPT – qHTS for Inhibitors of human tyrosyl-DNA phosphodiesterase 1 (TDP1): qHTS in cells in absence of CPT. DT40 Tdp1-/- hTDP1 cells, no CPT, ATP luminescence, 48 h. 15% of 420,000 active. Potency, µM (highest dose often 46.2 µM), for the others: at the highest dose activity change, negative = growth inhibition, hits mostly inhibitors. AID 686978, 2013; also: potency is read from the fitted curve at half-maximal effect; % is scaled to controls: 0 for no effect and ±100 for the full control effect; nearly all actives have a fitted effect of over 55% in size
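Growth kinetics read by CellTiter-Glo luminescence after ≥48 hr at 37 °C. Cells: DT40 Tdp1-/- stably carrying human TDP1, 400 per well, compound exposure in the absence of CPT (DMSO vehicle).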
uPA generation – blocks generation of uPA at the cell surface; 0.31% of 330,000 active; AID 540303; Potency, µM (series often up to 38.3 µM), without a hit: top-dose activity change, negative = inhibition, usual class: inhibitors; cell surface uPA generation assay, qHTS; active = well fitted inhibition curve with a large enough effect; inconclusive = small, poorly fitted or top-dose-only effect; inactive = no such curve, though single readings can be large or run the other way; tested in mouse RAW 264.7 cells; also: potency is read from the fitted curve at half-maximal effect; % is scaled to controls: 0 for no effect and ±100 for the full control effect; nearly all actives have a fitted effect of over 55% in size
TDP1 inh – blocks human tyrosyl-DNA phosphodiesterase 1; Q9NUW8; recombinant TDP1, AlphaScreen DNA substrate cleavage; Potency, µM (series often up to 130 µM), for inactives: at the highest dose activity change, negative = inhibition, most hits filed as inhibitors; 0.28% of 350,000 active; AID 485290; also: potency is read from the fitted curve at half-maximal effect; % is scaled to controls: 0 for no effect and ±100 for the full control effect; nearly all actives have a fitted effect of over 40% in size
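Tdp1 1 nM final; 15 min RT w/ cpd; substrate 15 nM, 5 min; beads 10 ug/ml, 10 min; AlphaScreen read. Neg ctrl: no enzyme.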
TDP1 cell CPT – growth inhibition of DT40 Tdp1-/-;hTDP1 cells with camptothecin (screen for TDP1 inhibitors); chicken DT40 Tdp1-/-;hTDP1 cells + 20 nM CPT, ATP luminescence, 48 h; Potency, µM (doses to about 46.2 µM), for inactives: at the top dose activity change, negative = growth inhibition, hits mostly inhibitors; 12% of 420,000 active; AID 686979; also: potency is read from the fitted curve at half-maximal effect; % is scaled to controls: 0 for no effect and ±100 for the full control effect; nearly all actives have a fitted effect of over 55% in size
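Chicken DT40 Tdp1-/- cells stably complemented with human TDP1 were seeded at 400 cells/well in medium containing 20 nM camptothecin, exposed to pin-transferred compounds, and grown at 37 °C for at least 48 hr. Viability was read as ATP luminescence.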
miR-21 reporter – miR-21 reporter, rising signal; HeLa miR-21 FLuc reporter, luciferase, 48 h; Potency, µM (top dose mostly 38.3 µM), without a hit: at the highest dose reporter change, positive = more light; 340,000 tested, under 10 active; active = well fitted rising curve with a large enough effect; inconclusive = small, poorly fitted or top-dose-only effect; inactive = no such curve, though single readings can be large or run the other way;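 further: % of control where 0% means no effect; miR-21 action dims this reporter so a rising signal means less miR-21 action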
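Luminescence from a firefly luciferase reporter carrying a miR-21 binding site downstream, stably expressed under a CMV promoter in HeLa cells that make miR-21 endogenously, reports miRNA modulation after 48 h compound exposure up to approximately 40uM final.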
Starred values were filed as active, the others as inactive; u = inconclusive; x = no result; [ ] = another dose, or the depositor's remark. Only some compounds are listed: those with a hit (about 16% of all), similar ones and a draw of the others. Unless noted, calls follow the shape of the dose curve; as a rule, active = well fitted curve in the direction sought with a large enough effect; inconclusive = small, poorly fitted or top-dose-only effect, or another doubt; inactive = no such curve, though single readings can be large; an effect the other way counts as inactive or inconclusive.

#	structure	DT40 TDP1 no CPT	uPA generation	TDP1 inh	TDP1 cell CPT	miR-21 reporter
1	CN(CC(=O)NC(=O)NCc1ccco1)Cc1nc2ccccc2c(=O)[nH]1	1.6µM*	7%	50µM*	4.6µM*	0%
2	CN(CC(=O)Nc1ccccc1Sc1ccccc1)Cc1nc2ccccc2c(=O)[nH]1	18µM*	12%	8%	u	15%
3	CS(=O)(=O)N(Cc1ccc(F)cc1)Cc1nc2ccccc2c(=O)[nH]1	2%	1%	7%	3%	-10%
4	COc1cc2c(cc1NC(=O)CN(C)Cc1nc3ccccc3c(=O)[nH]1)oc1ccccc12	23µM*	-3%	6%	18µM*	0%
5	CCN(CC(=O)Nc1cc(OC)ccc1OC)Cc1nc2ccccc2c(=O)[nH]1	11%	0%	1%	1%	0%
6	O=C(CCc1nc2ccccc2c(=O)[nH]1)NCc1ccco1	u	x	3%	u	10%
7	CCCCC1CN(CCNC(=O)c2ccccn2)Cc2ccccc2O1 (configuration not stated)	-4%	x	x	11%[9.04 µM]	x
8	CC(=O)c1ccc(NC(=O)c2cc(C3CC3)nc3c2c(C)nn3-c2ccc(C)cc2)cc1	-27%	x	6%	-25%	-1%
9	S=C(NCCN1CCOCC1)NC1CCCCC1	-12%	-1%	x	-6%	-3%
10	CCCN(CCC)c1nc(N)nc(C#N)n1	18µM*	x	1%	u	x
11	Cc1cc2nn(-c3ccc(F)cc3)nc2cc1NC(=O)c1cccc2c(Cl)cccc12	u	x	-5%	2.9µM*	-2%
12	CCN(CC)c1ccc(NC(=O)c2cccc(C)c2OC)c(C)c1	11µM*	x	2%	13µM*	-51%

Next part.
#	structure	DT40 TDP1 no CPT	uPA generation	TDP1 inh	TDP1 cell CPT	miR-21 reporter
13	CCN(CC)c1ccc(-n2nc3cc(C)c(NC(=O)c4ccccc4C)cc3n2)c(C)c1	21µM*	x	-5%	16µM*	9%
14	Cc1cc2nn(-c3cccc4ccccc34)nc2cc1NC(=O)c1cccs1	-72%	9%	-4%	23µM*	-13%
15	CC(C)CNC(=S)N1CCC(C(=O)c2ccc(F)cc2)CC1	u	-10%	x	u	11%
16	COc1cccc(CC(NC(C)=O)C(=O)NC2CCN(C(=O)c3ccc(Cl)cc3)CC2)c1OC (configuration not stated)	3%	-3%	x	10%	1%
17	COc1ccc(Cl)cc1S(=O)(=O)NC(C)C(=O)NCc1ccncc1 (configuration not stated)	2%	-7%	4%[0.0935 µM]	9%	-1%
18	C=CCn1c(-c2csc3c2CCC(C)C3)n[nH]c1=S (configuration not stated)	u	-2%	5%	u	-4%
19	COc1cccc(CNc2nc(NCc3ccccc3)nc3ccsc23)c1	4.1µM*	x	x	2.1µM*	x
20	COc1cccc(Nc2nc(N)c([N+](=O)[O-])c(NCc3ccccc3)n2)c1	u	-25%	7%	u	5%
21	CNc1nc(Oc2cccc(F)c2)c2sccc2n1	-26%	x	x	-24%	x
22	CNc1nc(NCc2cccc(OC)c2)c2sccc2n1	10µM*	x	x	7.3µM*	x
23	COc1cccc(CNc2nc(NCC3CC3)nc3ccsc23)c1	2.1µM*	x	x	16µM*	x
24	O=C(NC1CCCCCC1)c1c(O)nc2sccn2c1=O	15µM*	4%	x	16µM*	x

New compounds follow
#	structure	DT40 TDP1 no CPT	uPA generation	TDP1 inh	TDP1 cell CPT	miR-21 reporter
25	O=C(NC1CCCCC1)c1c(O)nc2sccn2c1=O	u	-5%	8%	u	x
26	CC12CCC(C(=O)N(Cc3ccccc3)Cc3ccccc3)(OC1=O)C2(C)C (configuration not stated)	u	9%	2%	18µM*	10%
27	Cc1cn(CC(=O)NCc2nc3ccccc3[nH]2)c(=O)[nH]c1=O	1%	x	x	-9%	x
28	CC(=O)c1cc(-c2ccccc2)n(CC(=O)NC2CCCC2)c1C	-20%	x	3%	-16%	2%
29	CC(=O)c1cc(-c2ccccc2)n(CC(=O)N2CCC(C)CC2)c1C	29µM*	-3%	8%	u	0%
30	CC(=O)c1cc(-c2ccccc2)n(CC(=O)N2CCN(C3CCCC3)CC2)c1C	23µM*	0%	3%	u	-4%
31	COc1ccccc1NC(=O)Cn1cnc2sc(C(=O)Nc3ccc(OC)c(OC)c3)c(C)c2c1=O	1%	10%	0%	11%	0%
32	Cc1cc(Br)ccc1NC(=O)c1sc2ncnc(N3CCN(c4ccccn4)CC3)c2c1C	2.6µM*	2%	1%	10µM*	0%
33	COc1ccc(Cl)cc1NC(=O)c1sc2nc(C)nc(N3CCOCC3)c2c1C	-1%	12%	9%	-19%	-1%
34	COc1ccc(NC(=O)c2sc3nc(C)nc(N4CCN(c5ccccn5)CC4)c3c2C)cc1Cl	21µM*	0%	x	u	2%
35	COc1ccc(NC(=O)c2sc3ncnc(N4CCN(c5ccccn5)CC4)c3c2C)cc1Cl	5.8µM*	4%	2%	21µM*	26%
36	O=C(Cn1cccn1)N1CCCC(N2CCN(Cc3ccc4c(c3)OCO4)CC2)C1 (configuration not stated)	3%	1%	1%	-18%	-4%

Compounds listed so far with a Cl atom:
#	structure	DT40 TDP1 no CPT	uPA generation	TDP1 inh	TDP1 cell CPT	miR-21 reporter
11	Cc1cc2nn(-c3ccc(F)cc3)nc2cc1NC(=O)c1cccc2c(Cl)cccc12	u	x	-5%	2.9µM*	-2%
16	COc1cccc(CC(NC(C)=O)C(=O)NC2CCN(C(=O)c3ccc(Cl)cc3)CC2)c1OC (configuration not stated)	3%	-3%	x	10%	1%
17	COc1ccc(Cl)cc1S(=O)(=O)NC(C)C(=O)NCc1ccncc1 (configuration not stated)	2%	-7%	4%[0.0935 µM]	9%	-1%
33	COc1ccc(Cl)cc1NC(=O)c1sc2nc(C)nc(N3CCOCC3)c2c1C	-1%	12%	9%	-19%	-1%
34	COc1ccc(NC(=O)c2sc3nc(C)nc(N4CCN(c5ccccn5)CC4)c3c2C)cc1Cl	21µM*	0%	x	u	2%
35	COc1ccc(NC(=O)c2sc3ncnc(N4CCN(c5ccccn5)CC4)c3c2C)cc1Cl	5.8µM*	4%	2%	21µM*	26%

Next section.
#	structure	DT40 TDP1 no CPT	uPA generation	TDP1 inh	TDP1 cell CPT	miR-21 reporter
37	O=C(NCC(c1cccnc1)N1CCN(Cc2ccccc2)CC1)C(=O)Nc1cccc(Cl)c1 (configuration not stated)	13µM*	x	1%	15µM*	-17%
38	Cc1cccc(NC(=O)NCC(c2cccnc2)N2CCOCC2)c1 (configuration not stated)	-12%	-2%	3%	-17%	0%
39	Cc1cccc(NC(=O)C(=O)NCC(c2cccnc2)N2CCN(Cc3ccccc3)CC2)c1 (configuration not stated)	16µM*	x	3%	23µM*	-10%
40	Cc1ccc(S(=O)(=O)N2CC(O)C[C@H]2C(=O)OCC(=O)N2CCN(c3ccc(F)cc3)CC2)cc1C (some centres not stated)	4.1µM*	u	x	10µM*	x
41	CCOc1ccccc1C(=O)NC1CCN(Cc2ccccc2)CC1	-5%	2%	x	1%	-6%
42	O=C(NC1CCN(Cc2ccccc2)CC1)c1ccccc1Cl	0%	12%	x	0%	-4%
43	C#CCOc1ccccc1CNC1CCN(Cc2ccccc2)CC1	21µM*	-11%	x	u	-6%
44	O=C(NC1CCN(Cc2ccccc2)CC1)c1ccccc1OCc1ccccc1	7.3µM*	-3%	x	u	3%
45	O=C(NC1CCN(Cc2ccccc2)CC1)c1ccccc1OCc1ccccc1Cl	u	-5%	9%	16µM*	12%
46	CCOc1ccccc1C(=O)NC1CC2CCCC(C1)N2Cc1ccc(C)cc1 (configuration not stated)	21µM*	3%	3%	u	-3%
47	COc1ccc(C)cc1NC(=O)NC1CCN(Cc2ccccc2)CC1	u	x	8%	23µM*	0%
48	COC(=O)c1ccccc1NC(=O)NC1CCN(Cc2ccccc2)CC1	u	x	3%	u	-4%
